# Literature values, collected in patent US11532831B1, “Redox-active compounds and uses thereof” (Palo Alto Research Center Incorporated, priority 2021, dated 2022).
# How the values were obtained:
# [1] = ferricyanide form; cited from earlier work
# [2] = cited from earlier work
substance,measurement,setting,value
ferrocyanide/ferricyanide,Chemical and electrochemical stability: light sensitivity,[1],light sensitive)
same,Solubility at pH 7,[2],0.6M
